## scFv variants of Ab-14 (heavy chain) against a SARS-CoV-2 spike peptide

Binding partner: SARS-CoV-2 spike HR2 peptide, sequence PDVDLGDISGINAS.

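The parent was found by panning a naive human phage display library on the peptide. Designed CDR sequences, proposed from the first random library and measured here. Their group label is 14H_En_HC (En: ensemble of fine-tuned language models; HC: hill climbing; a sequence that several methods proposed may carry one label only). The assay is AlphaSeq: two haploid yeast populations carry antibody and antigen on their surface. Binding brings cells together so that they mate, and sequencing counts the barcode pairs among the diploids. Each replicate has its own calibration line, from reference interactions of the BCL2 family. There are six technical replicates.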

Ab-14 is the parent antibody, in scFv form: VH, then a 15-residue (Gly4Ser)3 linker, then VL. The light chain is unchanged in all variants.
VH: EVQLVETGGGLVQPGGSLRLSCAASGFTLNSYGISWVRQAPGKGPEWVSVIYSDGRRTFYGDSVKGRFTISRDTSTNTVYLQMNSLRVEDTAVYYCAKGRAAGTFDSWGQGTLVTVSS
VL: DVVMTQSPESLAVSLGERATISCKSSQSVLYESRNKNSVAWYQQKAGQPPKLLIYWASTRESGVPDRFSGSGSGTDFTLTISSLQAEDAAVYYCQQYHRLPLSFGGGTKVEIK

Variants are written as CDR1, CDR2 and CDR3 of the heavy chain (limits as in the source). Parent: GFTLNSYGIS, VIYSDGRRTFYGDSVK, GRAAGTFDS.
Scale: log10 of Kd in nM, estimated from mating counts; low values are strong binders.
Replicates are averaged; those with no signal do not enter the mean.
A pair that was not seen in that replicate is written "n.d."; this usually means weak binding, but a binder can also be missed.
The parent sequence was in this pool as ten entries: three were never detected, three once, and four in most replicates, with averages from 0.34 to 2.37.
In the paper, a design with two or fewer of six values counts as a poor binder.
Three control strains display no target. For all heavy chain designs, 1% of the pairings with them gave a signal, with a median of 2.08 and one signal in twenty below 0.84, so weak values seen in few replicates may be background. The control count says in how many pairings with the empty strains this scFv gave a signal, with their mean in brackets.
The range of this assay differs from that of the first round, and the authors advise against merging the two.

CDR-H1 | CDR-H2 | CDR-H3 | replicates, log10 nM | mean log10 Kd (nM) | empty controls
GFNLNEYGIS | VIYADGRRKFYADSVK | GNTAGTFDK | -0.17 / -0.47 / -0.47 / -0.67 / -0.39 / -0.48 | -0.44 | 1/18 (1.05)
GFDLNEYGIS | VIYADGRRTFYADSVK | GKNAGTFLV | 1.55 / 2.05 / 1.44 / 1.86 / n.d. / 1.00 | 1.58 | 0/18
GFDLNEYGIS | VIYADGMRTFYDDSVK | GQLAGTFDT | -0.39 / -0.40 / -0.33 / -0.38 / -0.16 / 0.09 | -0.26 | 0/18
GFDLNEYGIS | VIYADGKRTFYTDSVK | GANAGTFDQ | -0.54 / -0.62 / -0.47 / -0.92 / -0.71 / 0.13 | -0.52 | 0/18
GFDLNEYGIS | VIYADGRRTFYADSVK | GESAGTFDL | 0.34 / 0.26 / 0.04 / 0.14 / -0.30 / 0.11 | 0.10 | 0/18
GFDLDEYGIS | VIYADGRRTFYADSVK | GSNAGTFDM | -1.10 / -0.78 / -0.84 / -1.25 / -0.94 / -1.09 | -1.00 | 0/18
GFDLNEYGIS | VIYADGRRTFYTDNVK | GQVAGTFDS | -0.37 / -0.19 / -0.81 / -0.48 / -0.86 / -0.20 | -0.49 | 0/18
GFDLNEYGIS | VIYADGRRTFYSDSVK | GTIAGTFIQ | 0.24 / -0.07 / 0.39 / 0.14 / 0.14 / 0.07 | 0.15 | 0/18
GFDLNEYGIS | VIYADGRRTAYSDSVK | GHNAGTFDV | -0.48 / -0.24 / -0.30 / -0.52 / -0.09 / 0.08 | -0.26 | 0/18
GFDLNEYGIS | VIYADGRRTQYSDSVK | GEAAGTFDL | -0.18 / -0.16 / 0.43 / -0.06 / 0.04 / 0.05 | 0.02 | 0/18
GFGLDEYGIS | VIYADGVRTFYADSVK | GENAGTFFM | n.d. / 2.36 / n.d. / n.d. / n.d. / n.d. | 2.36 | 0/18
GFDLNEYGIS | VIYADGRRTAYADSVK | GEAAGTFDL | -0.37 / -0.63 / -0.72 / -0.72 / -0.75 / -0.69 | -0.65 | 0/18
GFDLNEYGIS | VIYADGRRTQYIDSVK | GENAGTFDS | -0.03 / -0.33 / -0.20 / -0.45 / 0.04 / -0.19 | -0.19 | 0/18
GFDLNEYGIS | VIYADGRRTFYSDSVK | GNVAGSFDV | -0.44 / -0.40 / -0.36 / -0.38 / -0.36 / -0.41 | -0.39 | 0/18
GFDLNEYGIS | VIYADGRRTAYRDSVK | GEAAGTFDQ | -0.15 / -0.06 / -0.43 / -0.58 / -0.11 / -0.11 | -0.24 | 0/18
GFDINEYGIS | VIYADGRRTFYADSVK | GGNAGTFDS | -0.30 / -1.75 / -0.75 / -1.66 / -0.93 / -0.17 | -0.93 | 0/18
GFDLNEYGIS | VIYADGRRTFYADSVK | GNNGGTFDV | -0.13 / -0.41 / -0.18 / -0.47 / -0.04 / -0.72 | -0.33 | 0/18
GFDLNEYGIS | VIYADGRRTFYADSVK | GEFAGTFDQ | 1.41 / 0.49 / 0.26 / -0.28 / 0.18 / 1.50 | 0.59 | 1/18 (0.84)
GFDLDEYGIS | VIYADGRRTFYIDSVK | GETAGTFDA | 0.11 / -0.25 / -0.72 / -0.42 / -0.62 / -0.31 | -0.37 | 1/18 (1.81)
GFQLDEYGIS | VIYADGRRTFYQDSVK | GEVAGTFDQ | 0.14 / 0.57 / -0.13 / 0.31 / -0.05 / 1.07 | 0.32 | 0/18
GFDLNEYGIS | VIYADGKRTFYSDSVK | GNVGGSFDV | 0.64 / 0.76 / 0.37 / 0.52 / 0.32 / 0.50 | 0.52 | 0/18
GFDLNEYGIS | VIYADGIRTFYADSVK | GNNAGTFDV | -0.25 / -0.37 / -0.56 / -0.55 / -0.48 / -0.20 | -0.40 | 0/18
GFDLNEYGIS | VIYADGKRTFYSDSVK | GNEGGTFDV | 0.98 / 2.06 / n.d. / 0.73 / 1.76 / n.d. | 1.38 | 0/18
GFDLNEYGIS | VIYADGMRTFYADSVK | GNTAGTFLS | -0.71 / -0.23 / -0.74 / -0.63 / -0.64 / -0.50 | -0.58 | 0/18
GFDLNDYGIS | VIYADGRRTFYADSVK | GEMAGTFDI | 0.08 / -0.12 / 0.35 / 0.24 / 0.07 / -0.06 | 0.09 | 0/18
GFNLNEYGIS | VIYADGVRKFYADSVK | GNTAGTFDS | -0.37 / -0.44 / -0.69 / -0.69 / -0.45 / -0.52 | -0.53 | 0/18
GFDLNEYGIS | VIYADGMRTQYIDSVK | GNTAGTFDS | 0.14 / -0.51 / -0.45 / -0.58 / -0.38 / 0.03 | -0.29 | 0/18
GFDINEYGIS | VIYADGRRTFYADSVK | GNQGGTFDI | -0.02 / 0.20 / -0.91 / 0.57 / 0.81 / n.d. | 0.13 | 0/18
GFDLNEYGIS | VIYADGRRTFYSDKVK | GNVAGTFDI | -0.11 / -0.37 / -0.54 / -0.60 / -0.53 / -0.60 | -0.46 | 0/18
GFDLNEYGIS | VIYADGRRTFYTDSVK | GNVAGTFDQ | -0.69 / -0.65 / -0.48 / -0.99 / -0.98 / -0.80 | -0.77 | 1/18 (1.83)
GFDLNEYGIS | VIYADGKRTFYTDSVK | GNAAGTFLV | -0.19 / 1.04 / -0.18 / -0.67 / -0.55 / -0.01 | -0.10 | 0/18
GFDLDEYGIS | VIYADGRRTFYADSVK | GEAAGTFDQ | -0.02 / -0.61 / -0.69 / -1.01 / -0.49 / -0.53 | -0.56 | 0/18
GFDLDEYGIS | VIYADGRRTFYSDSVK | GSVAGTFDV | -0.63 / -0.64 / -0.58 / -0.95 / -0.56 / -0.60 | -0.66 | 0/18
GFNLNEYGIS | VIYADGRRTFYADSVK | GENAGTFDS | -0.23 / -0.63 / -0.43 / -0.51 / -0.43 / -0.32 | -0.43 | 2/18 (3.71)
GFDLSEYGIS | VIYADGMRTFYTDSVK | GEVAGTFDV | -0.14 / -0.41 / -0.38 / -0.62 / -0.50 / -0.48 | -0.42 | 1/18 (3.02)
GFDLNEYGIS | VIYADGRRTFYADSVK | GNQAGTFDL | -0.38 / -0.54 / -1.57 / -1.02 / -1.05 / -0.90 | -0.91 | 0/18
GFSLDEYGIS | VIYADGKRTFYADSVK | GNVAGTFDV | 0.35 / 0.45 / 0.86 / 0.52 / 1.00 / 0.64 | 0.64 | 0/18
GFDLNEYGIS | VIYADGRRTFYQDSVK | GNLAGTFDQ | -0.51 / -0.77 / -0.60 / -0.76 / -0.65 / -0.34 | -0.61 | 0/18
GFDLEDYGIS | VIYADGRRTFYADSVK | GNVAGTFDA | 0.27 / -0.17 / 0.71 / 0.11 / -0.25 / -0.60 | 0.01 | 0/18
GFQLDEYGIS | VIYADGRRTFYQDSVK | GEVAGTFDK | -0.19 / -0.36 / -0.48 / -0.48 / -0.40 / -0.22 | -0.35 | 0/18
GFDINEYGIS | VIYADGRRTFYADSVK | GNTAGTFDV | 0.57 / 1.60 / n.d. / 0.44 / 0.80 / n.d. | 0.85 | 0/18

For reference, 6 entries of the list once more:

CDR-H1	CDR-H2	CDR-H3	replicates, log10 nM	mean log10 Kd (nM)	empty controls
GFDLNEYGIS	VIYADGMRTQYIDSVK	GNTAGTFDS	0.14 / -0.51 / -0.45 / -0.58 / -0.38 / 0.03	-0.29	0/18
GFDLNEYGIS	VIYADGKRTFYSDSVK	GNVGGSFDV	0.64 / 0.76 / 0.37 / 0.52 / 0.32 / 0.50	0.52	0/18
GFDINEYGIS	VIYADGRRTFYADSVK	GNTAGTFDV	0.57 / 1.60 / n.d. / 0.44 / 0.80 / n.d.	0.85	0/18
GFDLEDYGIS	VIYADGRRTFYADSVK	GNVAGTFDA	0.27 / -0.17 / 0.71 / 0.11 / -0.25 / -0.60	0.01	0/18
GFDLNEYGIS	VIYADGMRTFYDDSVK	GQLAGTFDT	-0.39 / -0.40 / -0.33 / -0.38 / -0.16 / 0.09	-0.26	0/18
GFDLNEYGIS	VIYADGRRTQYIDSVK	GENAGTFDS	-0.03 / -0.33 / -0.20 / -0.45 / 0.04 / -0.19	-0.19	0/18

Reference: Li et al. 2023, doi:10.1038/s41467-023-39022-2. File: FLAb, binding data.